Test results reported in publication PMC4460250, “Systems Pharmacology Dissecting Holistic Medicine for Treatment of Complex Diseases: An Example Using Cardiocerebrovascular Diseases Treated by TCM” (Evidence-based Complementary and Alternative Medicine : eCAM, 2015).

conditions: in vivo; cited from earlier work

SMILES	HIA(Human Intestinal Absorption)
ClC(Cl)Cl [Chloroform]	1
CCOc1ccc2c3c1O[C@H]1[C@@H](O)C=C[C@H]4[C@@H](C2)N(C)CC[C@@]341 [Ethylmorphine]	0.77
CCN(CC)CCNC(=O)c1cc(Cl)c(N)cc1OC [Metoclopramide]	0.88
Nc1cc(N2CCCCC2)nc(N)[n+]1[O-] [Minoxidil]	0.98
CCN(CC)CCOC(=O)C(Cc1cccc2ccccc12)CC1CCCO1 (centres unmarked) [Nafronyl]	1
Cc1nc2n(c(=O)c1CCN1CCC(c3noc4cc(F)ccc34)CC1)CCCC2 [Risperidone]	0.97
CCOC(=O)[C@H](CCc1ccccc1)N[C@@H](C)C(=O)N1[C@H](C(=O)O)C[C@H]2CCCC[C@@H]21 [Trandolapril]	0.5

conditions: in vivo

SMILES	Class(High: HIA value ≥0.7; Low: HIA value < 0.7)
Cc1nc2n(c(=O)c1CCN1CCC(c3noc4cc(F)ccc34)CC1)CCCC2 [Risperidone]	High (key: High: HIA value ≥0.7; Low: HIA value < 0.7)
